Values of other authors, collected in patent publication US9925277B2, “Polynucleotide compositions containing amino acids” (ModernaTX, Inc., priority 2013, dated 2018).

Settings: in vivo, iv

distribution of the formulation to the liver: greater than 90%
Substance: penta[3-(1-laurylaminopropionyl)]-triethylenetetramine hydrochloride [Grp 98N12-5]
